# Intrinsic clearance values, as collected for the OPERA models

Source: data files of OPERA 2.9 (Mansouri et al.), github.com/kmansouri/OPERA.

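These are experimental values that the OPERA curators gathered from public databases to train and test their QSAR models. One number stands for a compound and property, with no spread given. How each value was measured is not recorded, so precision varies. A value may pool stereoisomers or salt forms, and the file does not say which form was measured. Some entries may be limits or estimates that an upstream database listed as plain numbers.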

Clint is human hepatic intrinsic clearance in µL/min per million cells; 0 means that no clearance was seen. Cells with "–" have no entry in this list.

compound,name,Clint (µL/min/10^6 cells)
O=C(Oc1ccccc1)c1ccccc1C(=O)Oc1ccccc1,Diphenyl phthalate,584
O=C(O)CCCOc1ccc(Cl)cc1Cl,"2,4-db",0
Cc1ccc(N)c(N)c1,"3,4-diaminotoluene",8.27
COP(=O)(NC(C)=O)SC (stereo unspecified),Acephate,0
Cc1ccc(/N=C/N(C)/C=N/c2ccc(C)cc2C)c(C)c1,Amitraz,33.3
C[N+](C)(C)CC1CO1.[Cl-] (stereo unspecified),"N,n,n-trimethyl(oxiran-2-yl)methanaminium chloride",0
FC(F)(F)C(Cl)Cl,"2,2-dichloro-1,1,1-trifluoroethane",10.2
COc1ccc2c3c1O[C@H]1[C@@H](O)C=C[C@H]4[C@@H](C2)N(C)CC[C@@]341,Codeine,24.53
CC(C)C[C@H]1C(=O)N2CCC[C@H]2[C@]2(O)O[C@](NC(=O)[C@@H]3C=C4c5cccc6[nH]c(Br)c(c56)C[C@H]4N(C)C3)(C(C)C)C(=O)N12,Bromocriptine,81.15
Cc1cc(C)nc(Nc2ccccc2)n1,Pyrimethanil,43.89
COc1ccc(C)cc1N,P-cresidine,19.53
C#CC(C)(C)NC(=O)c1cc(Cl)cc(Cl)c1,Propyzamide,5.4
CC(C)(C)CC(C)(C)c1ccc(O)cc1,"4-(1,1,3,3-tetramethylbutyl)phenol",26.98
Clc1ccc(C(c2ccc(Cl)cc2)C(Cl)(Cl)Cl)cc1,"p,p'-ddt",12.5
Cc1ccccc1O,2-methylphenol,27.48
Cc1cccc([N+](=O)[O-])c1C,"1,2-dimethyl-3-nitrobenzene",523
CCCCSP(=O)(SCCCC)SCCCC,Tribufos,125.1
Clc1cc(Cl)c(-c2cc(Cl)c(Cl)cc2Cl)cc1Cl,Pcb153,0
O=C(N[C@H]1CN2CCC1CC2)c1ccc2c(c1)OCCO2,–,3.688
CCOP(=O)(OCC)Oc1nc(Cl)c(Cl)cc1Cl,Chlorpyrifos oxon,43.3
O=P(Oc1ccccc1)(Oc1ccccc1)Oc1ccccc1,Triphenyl phosphate,26.44
CCc1nn(C)c(C(=O)NCc2ccc(C(C)(C)C)cc2)c1Cl,Tebufenpyrad,15.94
CCC(C)Nc1c([N+](=O)[O-])cc(C(C)(C)C)cc1[N+](=O)[O-] (stereo unspecified),Butralin,31.35
CNC(=O)Oc1cccc(N=CN(C)C)c1.Cl,Formetanate hydrochloride,13.72
N#Cc1cccnc1,3-pyridinecarbonitrile,0
COc1ccc(O)c(C(C)(C)C)c1,2-tert-butyl-4-methoxy-phenol,7.06
CCCN(CCC)c1c([N+](=O)[O-])cc(C(F)(F)F)cc1[N+](=O)[O-],Trifluralin,210
CCOP(=S)(OCC)Oc1ccc([N+](=O)[O-])cc1,Parathion,6.65
C1=Cc2cccc3cccc1c23,Acenaphthylene,12.38
CCCCC(O)(Cn1cncn1)c1ccc(Cl)cc1Cl (stereo unspecified),Hexaconazole,16.22
ClC1=C(Cl)[C@]2(Cl)[C@H]3[C@H]([C@@H]4C=C[C@H]3C4)[C@@]1(Cl)C2(Cl)Cl,Aldrin,0
CN(C)C(=O)Nc1ccc(Cl)cc1,Monuron,3.086